≈ marks a conversion by molar mass, not a printed value.
Key:
[1] = system: HaCaT cells; test: Cytotoxicity by CCK-8; format: cell-based; conditions: 256 μg/mL, 12 h, CCK-8, absorbance 450 nm; mean, n = 3
Procedure: The cytotoxicity of HaCaT was determined using CCK-8. The method was performed as follows. (1) Cell culture: HaCaT cells at a density of 2.5 × 10^5 cells/mL were inoculated into 96-well cell culture plates and incubated for 24 h (37 °C, 5% CO2, saturated humidity conditions); (2) drug incubation: after removing the medium, an equal volume of NZ2114 nanoparticles was added and incubated for 12 h; (3) CCK-8 incubation: the supernatant was removed, CCK-8 (1/10 dilution) was added and incubated for 2 h, and the absorbance value at 450 nm was detected by a Microplate Reader; (4) cell survival rate was calculated according to Equation (4). (4) Cell survival rate %=ANP/APBS×100%

[2] = system: S. epidermidis G4 biofilm; test: Effect on bacteria in established biofilms, colony counting; format: cell-based, Staphylococcus epidermidis
Procedure: The effect of NZ2114 nanoparticles on the bacteria in the biofilm was determined according to Yang’s method. Briefly, S. epidermidis G4 (1 × 10^8 CFU/mL) was incubated at 37 °C for 24 h, the supernatant was removed and washed with PBS, and different concentrations of NZ2114 or NZ2114-NPs were added and incubated for 12 h, and then colonies were counted.

[3] = system: Staphylococcus epidermidis ATCC 35984; test: MIC and MBC, broth microdilution; format: cell-based
Procedure: (§1) The MIC values of NZ2114 nanoparticles were assessed using the broth microdilution method. Briefly, S. epidermidis in the logarithmic growth phase (1 × 10^5 CFU/mL) was incubated with different concentrations of samples for 16 to 20 h at 37 °C.

[4] = system: S. epidermidis G4 biofilms; test: Observation of biofilms by confocal laser scanning microscopy; format: cell-based, Staphylococcus epidermidis; conditions: 16× MIC; untreated biofilm thickness 12.6 µm
Procedure: The effect of NZ2114 on the biofilm and internal bacteria was observed according to the previous study. After NZ2114-NP treatment, samples were incubated with PI and SYTO9 (LIVE/DEAD BacLight Bacterial Viability Kit, ThermoFisher, Shanghai, China) for 15 min and observed by CLSM (Zeiss LSM880, Carl Zeiss, Oberkochen, Germany).

[5] = system: pepsin; test: Enzymatic resistance, inhibition zone assay after pepsin; format: in vitro ADME; conditions: 2 h, 37 °C, zone inhibition assay against S. epidermidis G4, mean, n = 3
Procedure: (§2) The enzymatic stability of NZ2114 nanoparticles was determined by inhibition zone assay. Free or encapsulated NZ2114 was incubated with trypsin or pepsin for 2 h at 37 °C to determine protease stability. Untreated peptide and buffer alone were used as positive and negative controls, respectively. All assays were performed in triplicate.

[6] = system: S. epidermidis; test: MIC, broth microdilution, range over the tested strains; format: cell-based, Staphylococcus epidermidis; conditions: range over the four strains of Table 3
Procedure: as §1

[7] = system: S. epidermidis G4 biofilm persister; test: Effect on biofilm persisters, colony counting; format: cell-based, Staphylococcus epidermidis; conditions: 16× MIC, 24 h, after vancomycin (100× MIC) 24 h
Procedure: The antibacterial effect of NZ2114 nanoparticles on the persistent bacteria in the biofilm was determined according to the previous study.

[8] = system: mouse erythrocytes; test: Hemolysis analysis; format: cell-based; conditions: 128 μg/mL, 8% mouse erythrocytes in 0.9% NaCl, 37 °C, 1 h; mean, n = 3
Procedure: Mouse blood erythrocytes were used to assess the hemolysis of NZ2114 nanoparticles. Mouse erythrocytes were diluted to 8% with 0.9% NaCl, and then an equal volume of different concentrations of nanoparticles was added and mixed, and the samples were incubated at 37 °C for 1 h. After incubation, samples were centrifuged at 1500 rpm for 5 min at 4 °C, and the supernatant was collected and transferred to a 96-well plate for determination. Then, 0.9% NaCl solution and 0.1% tritone X-100 were used as the negative control (A0) and positive control (A100), respectively. Hemolysis was calculated according to Equation (3). (3) Hemolysis %=ANP− A0/A100− A0×100%

[9] = system: S. epidermidis G4; test: MIC and MBC, broth microdilution; format: cell-based, Staphylococcus epidermidis
Procedure: as §1

[10] = system: S. epidermidis G11; test: MIC and MBC, broth microdilution; format: cell-based, Staphylococcus epidermidis
Procedure: as §1

[11] = system: S. epidermidis ATCC 12228; test: MIC and MBC, broth microdilution; format: cell-based, Staphylococcus epidermidis
Procedure: as §1

[12] = system: trypsin; test: Enzymatic resistance, inhibition zone assay after trypsin; format: in vitro ADME; conditions: 2 h, 37 °C, zone inhibition assay against S. epidermidis G4, mean, n = 3
Procedure: as §2

[13] = Serum stability by RP-HPLC; format: in vitro ADME, mouse; conditions: 37 °C, RP-HPLC UV 280 nm, mean, n = 3
Procedure: Quantification was performed using reversed-phase high performance liquid chromatography (RP-HPLC) (Agilent 1260 Infinity, Santa Clara, CA, USA) with UV absorption detector composition. Stationary phase: Boston Green ODs-AQ (250 mm × 4.6 mm, 5 μm, 120 Å), mobile phase: 0.1% TFA acetonitrile solution; B: 0.1% TFA aqueous solution. The gradient elution conditions were as follows: 0–16 min, 20–45% of mobile phase A; flow rate of 1.0 mL/min; detection wavelength: 280 nm; injection volume: 50 μL. […] The drug concentration in the samples was calculated.
To assess the stability of NZ2114-NPs under physiological conditions, nanoparticles obtained by freeze-drying were resuspended in 1.5 mL of mouse serum at final concentrations of 12.5%, 25% and 50%, incubated at 37 °C for 0, 1, 2, and 4 h and quantified by RP-HPLC [53, 55].

With `CC[C@H](C)[C@@H]1NC(=O)[C@H](CO)NC(=O)[C@H](CCCCN)NC(=O)[C@@H]2CSSC[C@@H](C(=O)N[C@@H](Cc3ccc(O)cc3)C(=O)O)NC(=O)[C@H](CCCCN)NC(=O)[C@@H]3CSSC[C@H](NC(=O)[C@H](CCCNC(=N)N)NC(=O)[C@H](CC(C)C)NC(=O)[C@H](CC(=O)O)NC(=O)[C@H](CC(=O)O)NC(=O)[C@H](CCC(=O)O)NC(=O)[C@H](CC(N)=O)NC(=O)[C@H](Cc4c[nH]c5ccccc45)NC(=O)[C@@H]4CCCN4C(=O)CNC(=O)[C@H](CC(N)=O)NC(=O)[C@@H](NC(=O)CNC(=O)[C@H](Cc4ccccc4)NC(=O)CN)CSSC[C@H](NC(=O)[C@H](Cc4ccc(O)cc4)NC(=O)CNC(=O)CNC(=O)[C@H](CCCCN)NC(=O)[C@H](Cc4ccc(O)cc4)NC(=O)CNC(=O)[C@H](CCCCN)NC1=O)C(=O)N[C@@H](C)C(=O)N[C@@H](CCCCN)C(=O)NCC(=O)NCC(=O)N[C@@H](Cc1ccccc1)C(=O)N[C@@H](C(C)C)C(=O)N3)C(=O)N[C@@H](Cc1c[nH]cn1)C(=O)N[C@@H](CC(N)=O)C(=O)N[C@@H](Cc1c[nH]cn1)C(=O)N2` [NZ2114] the “Survival rate of HaCaT cells” value [1] was 80.78%, the “Decrease of colony number of bacteria in biofilm” value ([2]; S. epidermidis G4 24 h biofilm, 1-128× MIC, 12 h treatment, colony counting, n = 3) was 0.578 to 6.27 lg and the “Bactericidal rate against S. epidermidis G4 in mature biofilm” value ([2]; range over the tested concentrations) was 6–65%. For the same compound, the MIC ([3]; Staphylococcus epidermidis ATCC 35984, 1 × 10^5 CFU/mL, 16 to 20 h, 37 °C) was 8 µg/mL (≈ 1.81 µM), the MBC ([3]; Staphylococcus epidermidis ATCC 35984, lowest concentration killing 99% of the bacteria) was 16 µg/mL (≈ 3.63 µM) and the “Biofilm by CLSM (SYTO-9 / PI)” value [4] was “flocculent biofilm almost disappeared”. For the same compound, the “Retained antimicrobial activity after pepsin” value [5] was 93%, the “MIC against S. epidermidis” value [6] was 2 to 8 µg/mL and the “Number of persistent bacteria after treatment” value [7] was 1.04 × 10^4 CFU/mL. The Hemolysis rate [8] was 0.67%, the MIC ([9]; S. epidermidis G4, 1 × 10^5 CFU/mL, 16 to 20 h, 37 °C) was 2 µg/mL (≈ 0.453 µM) and the MBC ([9]; S. epidermidis G4, lowest concentration killing 99% of the bacteria) was 16 µg/mL (≈ 3.63 µM). The MIC ([10]; S. epidermidis G11, 1 × 10^5 CFU/mL, 16 to 20 h, 37 °C) was 4 µg/mL (≈ 0.907 µM), the MBC ([10]; S. epidermidis G11, lowest concentration killing 99% of the bacteria) was 32 µg/mL (≈ 7.25 µM) and the MIC ([11]; S. epidermidis ATCC 12228, 1 × 10^5 CFU/mL, 16 to 20 h, 37 °C) was 2 µg/mL (≈ 0.453 µM). For the same compound, the MBC ([11]; S. epidermidis ATCC 12228, lowest concentration killing 99% of the bacteria) was 4 µg/mL (≈ 0.907 µM), the “Retained antimicrobial activity after trypsin” value [12] was 18% and the “Peptide retention in 12.5% serum, 1 h” value ([13]; 12.5% mouse serum, 1 h) was 97.64%. For the same compound, the “Peptide retention in 12.5% serum, 4 h” value ([13]; 12.5% mouse serum, 4 h) was 84.34%, the “Peptide retention in 25% serum, 1 h” value ([13]; 25% mouse serum, 1 h) was 96.85% and the “Peptide retention in 25% serum, 4 h” value ([13]; 25% mouse serum, 4 h) was 65.69%. For the same compound, the “Peptide retention in 50% serum, 1 h” value ([13]; 50% mouse serum, 1 h) was 90.59% and the “Peptide retention in 50% serum, 4 h” value ([13]; 50% mouse serum, 4 h) was 59.83%.

Source: article PMC10967427, “Polylactic Glycolic Acid-Mediated Delivery of Plectasin Derivative NZ2114 in Staphylococcus epidermidis Biofilms” (Antibiotics, 2024)
